Values of other authors, collected in publication PMC3411462, “Long-acting κ opioid antagonists nor-BNI, GNTI and JDTic: pharmacokinetics in mice and lipophilicity” (BMC Pharmacology, 2012).

System: μ opioid receptor
Conditions: highest sub-lethal i.c.v. dose; cited from earlier work

Substance: β-chlornaltrexamine
- μ antagonism, duration: less than 6 days
